Biological target: Melanin-concentrating hormone receptor 1 [E4Q,A5T] (Human, UniProt Q99705, A5T/E4Q)
Test: Radioligand Binding Assay
Settings: pH 7.4
Experimental: An in vitro binding assay was used to determine the compound Ki value or ability to antagonize binding of a peptide agonist to the human melanin concentrating hormone receptor (MCHR1). Membranes from stably transfected HEK-293 cells expressing a mutated (E4Q, A5T) hMCHR1 receptor were prepared by dounce homogenization and differential centrifugation. […] Inhibitory constants were determined by nonlinear least squares analysis using a four parameter logistic equation.

Protein sequences, listed by entry. Tags and fused reporters are not part of them. Chains listed by the source or under a name are the forms on record and can include a tag or linker. Residues count along the entry.
UniProt Q99705, 1-353 with tags or gaps A5T/E4Q: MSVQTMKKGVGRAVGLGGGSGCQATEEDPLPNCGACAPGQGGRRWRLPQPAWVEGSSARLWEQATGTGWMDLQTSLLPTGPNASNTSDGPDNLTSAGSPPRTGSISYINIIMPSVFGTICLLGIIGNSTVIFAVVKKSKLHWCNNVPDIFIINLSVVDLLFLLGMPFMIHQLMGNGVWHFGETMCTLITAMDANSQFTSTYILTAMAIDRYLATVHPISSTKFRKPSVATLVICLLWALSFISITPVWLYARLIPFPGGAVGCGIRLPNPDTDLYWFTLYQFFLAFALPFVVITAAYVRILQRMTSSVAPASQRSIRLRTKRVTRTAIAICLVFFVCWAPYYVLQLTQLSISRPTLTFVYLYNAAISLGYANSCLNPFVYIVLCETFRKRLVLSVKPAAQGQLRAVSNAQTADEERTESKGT

SMILES	Ki
COc1cc(N2CC[C@H](Oc3ccc(C4CC4)cc3)C2=O)ccc1OCCN[C@H]1CC[C@H](O)CC1 [US9499482, 26]	5 nM
CCc1cc(N2CC[C@H](Oc3ccc(C4CC4)cc3)C2=O)ccc1OCCN1CCNC(=O)C1 [US9499482, 52]	7 nM
O=C1[C@@H](Oc2ccc(C3CC3)cc2)CCN1c1ccc(OCCN2CCCC2)c(Cl)c1 [US9499482, 92]	0.75 nM

More lines, now with the values ahead:

Ki	SMILES
28 nM	O=C1[C@H](Oc2ccc(C3CC3)cc2)CCN1c1ccc(OCCN2CCCC2)c(Cl)c1 [US9499482, 93]
0.4 nM	COc1cc(N2CCC(Oc3ccc(C4CC4)cc3)C2=O)ccc1OCCN1CC(O)(C2CC2)C1 (stereo unspecified) [US9499482, 157]
0.4 nM	O=C1C(Oc2ccc(C3CC3)cc2)=CCN1c1ccc2c(cnn2CCN2CCCC2)c1 [US9499482, 252]

Reference: BindingDB's records for patent US9499482 (Bristol-Myers Squibb Co., 2016)
